# Measurements: PubChem BioAssay AID1778 (Sanford-Burnham Center for Chemical Genomics, 2009)
# Protein sequences, listed by entry. Tags and fused reporters are not part of them. Lines headed by an entry give the natural chain unless they say otherwise; changes in a name come on top.
# UniProt P41145: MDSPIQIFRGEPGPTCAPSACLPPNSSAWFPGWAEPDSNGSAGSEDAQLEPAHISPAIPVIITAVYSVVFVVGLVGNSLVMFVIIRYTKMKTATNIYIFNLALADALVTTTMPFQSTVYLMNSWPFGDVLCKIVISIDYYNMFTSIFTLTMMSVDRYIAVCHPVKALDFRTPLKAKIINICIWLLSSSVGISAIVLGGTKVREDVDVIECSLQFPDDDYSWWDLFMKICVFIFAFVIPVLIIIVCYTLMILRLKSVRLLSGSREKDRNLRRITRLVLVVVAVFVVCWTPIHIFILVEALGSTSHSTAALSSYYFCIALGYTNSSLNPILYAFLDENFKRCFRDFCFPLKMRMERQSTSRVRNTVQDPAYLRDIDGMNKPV
# The other results are listed elsewhere or left out. Potency and affinity values are given separately. The source made the active and inactive calls. No stated cut-off is given here; in the data, active means inhibition above about 50%; inactive means the rest.
# Target: Kappa-type opioid receptor (Homo sapiens) (UniProt P41145)
# Experiment: kappa opioid receptor blockers – cell-based, luminescence, uHTS (AID 1778)
# Conditions: KOR beta-arrestin recruitment, antagonist mode, at 10 µM, active compounds read high
row,Compound,inhibition
1,CCOc1ccc(S(=O)(=O)N(C)c2ccc(OCC(=O)N3c4ccc(C)cc4C4CN(C)CCC43)cc2)cc1 (centres undefined),inactive: -30.7%
2,CC(C)(C)NC(=O)Cn1c(SCC(=O)Nc2nccs2)nc2ccccc21,inactive: 2.3%
3,C[C@@H]1C=CCP(=O)(Oc2ccccc2)O1 (some centres undefined),inactive: 22.7%
4,O=C(CCNC(=O)N1CCn2c1nc1ccccc12)NCc1ccccc1Cl,inactive: -94.1%
5,CN(C)CCn1c(N)nc2ccccc21,inactive: -24.7%
6,CN(C)C(=O)CSc1nc2ccccc2n1CC(=O)N1CCN(c2ccccc2)CC1,inactive: 18.8%
7,C[C@H]1OP(=O)(Oc2ccccc2)C[C@@H]2O[C@@H]21 (some centres undefined),inactive: 28.9%
8,CCC(=O)Nc1nc2ccccc2n1CCN(C)C,inactive: 2.9%
9,Cc1ccc2c(c1)C1CN(C)CCC1N2Sc1ccccc1[N+](=O)[O-] (centres undefined),inactive: -1.8%
10,O=C(Cn1c(SCC(=O)N2CCCc3ccccc32)nc2ccccc21)N1CCCC1,inactive: 0.8%
11,CC(=O)c1ccc(N2CC2c2ccncc2)cc1 (centres undefined),inactive: 32.6%
12,Cc1ccc2c(c1)C1CN(C)CCC1N2C(=O)COc1ccc(N(C)S(=O)(=O)c2cccs2)cc1 (centres undefined),inactive: 0.1%
13,COC(=O)c1ccccc1NC(=O)Cn1c(-c2nonc2N)nc2ccccc21,inactive: -109%
14,O=C(Cn1cnc2ccccc21)N/N=C/C(Br)=C/c1ccccc1,inactive: -26.9%
15,Cn1c(=O)c2c(ncn2CC(=O)N/N=C/C(Cl)=C/c2ccccc2)n(C)c1=O,inactive: -4.8%
16,CC(NC(=O)CCCCCNC(=O)N1CCn2c1nc1ccccc12)c1ccccc1 (centres undefined),inactive: -18.4%
17,CCOC(=O)c1ccc(NC(=O)C2CC(=O)Nc3nc4ccccc4n32)cc1 (centres undefined),inactive: 3%
18,CCC(C(=O)NC1CCCC1)n1c(SCc2cccc(C)c2)nc2ccncc21 (centres undefined),inactive: 8.7%
19,COc1ccc2c(c1)C1(Nc3ccccc3-c3nc4ccccc4n31)C(=O)N2 (centres undefined),inactive: -31.1%
20,CC(=O)Nc1ccc([As](=O)(O)O)c(O)c1,inactive: -10.5%

row,Compound,inhibition
1,O=S(=O)(c1ccc(F)cc1)N1CCn2c(nc3ccccc32)C1,inactive: -3.4%
2,CSCC[C@H](NC(=O)N1CCn2c1nc1ccccc12)C(=O)NC1CCCCC1,inactive: -4.1%
3,CC1=NNC(=O)C1CCC(=O)N/N=C/C=C/c1ccccc1 (centres undefined),inactive: 18%
4,O=C(CCNC(=O)N1CCn2c1nc1ccccc12)NCc1ccc(Cl)cc1,inactive: -31.6%
5,Cc1cc(NC(=O)CSc2nc3ccccc3n2CC(=O)N2CCC(C)CC2)no1,inactive: -19.4%
6,Cc1nc2cc(C(F)(F)F)ccc2n1C1CCN(Cc2nnnn2CCc2ccccc2)CC1,inactive: -6.5%
7,CC(=O)Nc1ccc(Oc2c([N+](=O)[O-])cc([N+](=O)[O-])cc2[N+](=O)[O-])cc1,inactive: 25.7%
8,CN1C(=O)CC(n2c(CO)nc3ccccc32)C1=O (centres undefined),inactive: 8.2%
9,COc1ccccc1OCC(O)Cn1c(=N)n(CCN2CCCCC2)c2ccccc21 (centres undefined),inactive: -64.4%
10,CC(C)C[C@H](NC(=O)N1CCn2c1nc1ccccc12)C(=O)NCc1ccccc1,inactive: -10.4%
11,Fc1ccc2c(c1)nnn2C1CCN(Cc2nnnn2CCc2ccccc2)CC1,inactive: 0.5%
12,O=C(Cn1cnc2ccccc21)Nc1ccc(C(=O)O)cc1,inactive: -27.1%
13,O=C(C1COc2ccccc2O1)N1CCn2c(nc3ccccc32)C1 (centres undefined),inactive: -1%
14,COCCN1CCn2c(nc3cc(NC(=O)Cn4nc(C)c5ccccc5c4=O)ccc32)C1,inactive: 41.4%
15,COc1ccc(CCNC(=O)[C@H](C)NC(=O)N2CCn3c2nc2ccccc23)cc1OC,inactive: 5.8%
16,CC(C)[C@H](NC(=O)N1CCn2c1nc1ccccc12)C(=O)NCc1ccc(F)cc1,inactive: -19.4%
17,Cn1c(=O)c2ncn(CC(=O)Nc3ccc(N4CCOCC4)cc3)c2n(C)c1=O,inactive: -6.6%
18,CCOC(=O)C1CCCN(C(=O)Cn2cnc3c2c(=O)n(C)c(=O)n3C)C1 (centres undefined),inactive: -34%
19,O=C(C1CCCN1S(=O)(=O)c1cccc2cccnc12)N1CCn2c1nc1ccccc12 (centres undefined),inactive: 1.1%
20,c1ccc(-c2nn[nH]n2)c(-c2nn[nH]n2)c1,inactive: -8.3%

row,Compound,inhibition
1,O=C(Cn1c(-c2ccco2)nc2ccccc21)N1CCCCC1,inactive: 11.8%
2,CCOC(=O)NC(Sc1ccccc1)C(Cl)(Cl)Cl (centres undefined),inactive: 20%
3,Cc1ccc(NP(=O)(Oc2cccc(C)c2)Oc2cccc(C)c2)nc1,inactive: -51%
4,O=c1[nH]c2ccccc2n1C1CCN(CCCC(c2ccc(F)cc2)c2ccc(F)cc2)CC1,inactive: 19.3%
5,Cc1ccc(Cn2c(=O)c3c(nc4n3CCN4Cc3ccco3)n(C)c2=O)cc1,inactive: -0.9%
6,COc1cc(/C=N/NC(=O)Cn2cnc3c2c(=O)n(C)c(=O)n3C)ccc1O,inactive: 16.6%
7,CCSc1nc2ccccc2n1CC(=O)N1CCOCC1,inactive: 3.2%
8,O=C(NC1CCS(=O)(=O)C1)NP(=S)(Oc1ccccc1)Oc1ccccc1 (centres undefined),inactive: -20.5%
9,COc1cccc(NC(=O)[C@H](C)NC(=O)N2CCn3c2nc2ccccc23)c1,inactive: 25%
10,S=C(Nc1ccccc1)N1CCn2c1nc1ccccc12,inactive: -17.7%
11,COc1cccc(/C=N/NC(=O)Cn2cnc3c2c(=O)n(C)c(=O)n3C)c1,inactive: -23.8%
12,c1ccc(CN2CCN(CCN3CCn4c3nc3ccccc34)CC2)cc1,inactive: 10.6%
13,Cc1nc2ccccc2n1C1CC(=O)N(Cc2ccccc2)C1=O (centres undefined),inactive: -25.2%
14,CC(c1ccccc1)N1CCn2c(nc3cc(NS(C)(=O)=O)ccc32)C1 (centres undefined),inactive: 4.5%
15,COc1ccccc1C(=O)Nc1ccc2c(c1)nc1n2CCN(C2CCCCC2)C1,inactive: -40.6%
16,O=C(Cn1c(-c2cscn2)nc2ccccc21)Nc1ccccc1F,inactive: -42.7%
17,O=C(Nc1nc2ccccc2n1CCN1CCCCC1)c1ccco1,inactive: 9.8%
18,CCC(=O)Nc1cccc(C(=O)/C=C/c2cc(Br)ccc2OC)c1,inactive: 25.1%
19,O=S(=O)(c1ccccc1)c1nnn2c1nc(NC1CCN(Cc3ccccc3)CC1)c1ccccc12,inactive: -32.7%
